The results in this text go back to patent US12139488B2, “Pyrido[3,2-d]pyrimidine compounds uses thereof for treating a proliferative disease” (Universite de Montreal, priority 2021, dated 2024).

The test system of experiment [1] is A375 cells (BRAF V600E). Nature of the experiment: Proliferation inhibition (CellTiter-Glo), A375. The following applies: read-out: A375 Prolif. EC50; A375, 3 days. As for the experimental part: (§1) All cancer cell lines (A375, A101D, A2058, RKO, HT29 SK-MEL 30, IPC298, HepG2, HCT-116, Lovo, SWV620, SW480, NCI-H358, NCI-H2122, Calu-6, NCIH2087, NCIH1755, NCIH1666 and Mewo) were obtained from ATCC and cultured in RPMI-1640 medium (Gibco) supplemented with 5% heat inactivated fetal bovine serum (FBS, Wisent) at 37° C. under 5% CO2. Cells were maintained in T175 flasks (Greiner). They were passaged by removing the culture medium, washing once in 10 mL of room temperature Phosphate Buffered Saline (PBS; Wisent) and incubating at 37° C. with 2 mL of 0.05% Trypsin (Thermo-Fisher). Trypsin was then inactivated by adding complete growth medium and the cells were then replated in a T175 culture dish at the appropriate dilution. All cell lines were routinely tested for mycoplasma contamination. Tissue type and mutational status of each cell line can be found in Table B.
(§2) CellTiter-Glo® viability analysis was conducted on cells plated in 100 μL of complete RPMI-1640 growth medium in 96-well flat-bottomed white opaque plates (Greiner or Croning) at a density indicated in Table E (for each CCL, number of cells plated per well of a 96-well plate to perform the CellTiter-Glo® cell viability assay). The cell density in cells/cm^2 would correspond to cell number divided by the area of one well of a 96-well plate (0.32 cm^2). Cells were maintained overnight at 37° C. under 5% CO2 before treatment with compounds' dilution series for 3 days.
(§3) In a dilution series 100 μL/well of test substance dilution prepared in complete RPMI-1640 growth media was added to the cells plated initially in 100 μL of growth media. The dilution series is selected so that ten concentrations cover a range from 10 μM to 0.33 nM. If necessary (as in the case of A375 cells, which were more sensitive to the compounds) the initial concentration of 10 μM is lowered to 1 μM and further dilution is carried out accordingly. The final concentration of DMSO in the assay is set at is 0.5%.
(§4) After 3 days of incubation, the growth media were removed by aspiration and 60 μL of diluted CellTiter-Glo® reagent (10 μL CellTiter-Glo® reagent+50 μL of PBS) was added to each well. Cells were allowed to lyse and to equilibrate in CellTiter-Glo® reagent by 5 min incubation on a plate shaker followed by 10 min incubation at room temperature. Luminescence signals were then acquired on a Synergy Neo2 plate reader (Biotek).
(§5) The effect of each compound dilution on the proliferation of cancer cell lines was expressed in % inhibition and calculated as follows. An internal 100% inhibition control (1 μM of trametinib; cat #HY-10999; MedChem Express; CAS #871700-17-3) was included in each plate and used as a measure of CellTiter-Glo® signal background. The value obtained for trametinib was subtracted from each data point. The average of DMSO (vehicle) controls (set as 0% inhibition) was established and used to calculate % inhibition: % inhibition=100*(1−((CellTiter-Glo® signalcompound)/(CellTiter-Glo® signalDMSO)))
(§6) The ability of each compound to inhibit proliferation was expressed as a EC50 value obtained by plotting the effect values for each data point of a dilution series and fitting the obtained curves using a log(agonist) versus response-variable slope (four parameters) function using GraphPadPrism (V7.0) or Dotmatics Screening Ultra platform.
In general terms: ATP-based viability assays read luminescence as a measure of living cells.

For experiment [2], the system named is pERK in SK-MEL30 cells (NRAS-Q61K). The experiment can be described thus: Phospho-ERK inhibition (AlphaLISA), SK-MEL30. The following applies: for SK-MEL30 pERK % Ymin: SK-MEL30, value in parentheses; for IC50: read-out: SK-MEL30 pERK IC50, SK-MEL30. As for the experimental part:
as §1
(§7) AlphaLISA® SureFire® Ultra™ p-ERK 1/2 (Thr202/Tyr204) analysis was conducted on cells plated in 100 μL of complete RPMI-1640 growth medium in 96-well flat-bottomed transparent dishes (Costar) at a density indicated in Table C. Cells were maintained overnight at 37° C. under 5% CO2 before treatment with compounds' dilution series for one hour. The cell density in cells/cm^2 corresponds to cell number divided by the area of one well of a 96-well plate ([…]).
(§8) In a dilution series 100 μL/well of test substance dilution prepared in complete RPMI-1640 growth media was added to the cells. The dilution series is selected so that ten concentrations cover a range from 10 μM to 0.33 nM. If necessary the initial concentration of 10 μM is increased to 100 μM or lowered to 1 μM (as in the case of A375 and H1666 cells, which are generally more sensitive to the compounds) and further dilution is carried out accordingly. The final concentration of DMSO in the assay is set at 0.5%.
(§9) After treatment, media was removed and cells were lysed in 50 μL of 1× AlphaScreen Ultra Lysis Buffer (Perkin Elmer). The AlphaLISA® SureFire® Ultra™ p-ERK 1/2 (Thr202/Tyr2O4) (PerkinElmer) reactions were performed with 5 μL of cell lysate according to the manufacturer's specifications in 384-well proxyplates (Perkin Elmer) followed by overnight incubation of the reactions at room temperature in a humidified chamber. After completion of the reactions, the signals were recorded on an EnVision plate reader (Perkin Elmer) using built in AlphaLISA® settings.
(§10) The effect of each compound dilution on the pERK signal was expressed in % inhibition and calculated as follows. An internal 100% inhibition control ([…] trametinib, cat #HY-10999; MedChem Express; CAS #871700-17-3) was included in each plate and used as a measure of pERK background. First, the value obtained for trametinib was subtracted from each data point. The average of DMSO (vehicle) controls (set as 0% inhibition) was established and used to calculate % inhibition: % inhibition=100*(1-((pERK signalcompound)/(pERK signalDMSO)))
(§11) The ability of each compound to inhibit pERK signal was expressed as an IC50 value obtained by plotting the inhibition values for each data point of a dilution series and fitting the obtained curves using a log(agonist) versus response-variable slope (four parameters) function using GraphPadPrism (V7.0) or Dotmatics Screening Ultra platform.
(§12) When present, paradoxical pERK induction is inferred from the negative % inhibition values observed in the pERK IC50 curves of a compound.
(In Alpha technology, singlet oxygen from a donor bead excites a nearby acceptor bead.)

Experiment [3] relates to A2058 cells (BRAF V600E). The experiment can be described thus: Proliferation inhibition (CellTiter-Glo), A2058. The following applies: read-out: A2058 Prolif. EC50; A2058, 3 days. As for the experimental part: as §1, §2, §3, §4, §5, §6
Experiment [4] relates to pERK in NCI-H2122 cells (KRAS-G12C). Nature of the experiment: Phospho-ERK inhibition (AlphaLISA), NCI-H2122. Particulars: for NCI-H2122 pERK % Ymin: NCI-H2122, value in parentheses; for IC50: read-out: NCI-H2122 pERK IC50, NCI-H2122. As for the experimental part:
as §1, §7, §8, §9, §10, §11, §12

In experiment [5] the test system is HepG2 cells (NRAS-Q61L). The experiment can be described thus: Proliferation inhibition (CellTiter-Glo), HepG2. The following applies: read-out: HepG2 Prolif. EC50; HepG2, 3 days. As for the experimental part: as §1, §2, §3, §4, §5, §6
Experiment [6] has as its system IPC298 cells (NRAS-Q61L). The experiment can be described thus: Proliferation inhibition (CellTiter-Glo), IPC298. The following applies: read-out: IPC298 Prolif. EC50; IPC298, 3 days. Here is the method:
as §1, §2, §3, §4, §5, §6

The structures appear in SMILES notation.

Broadly, the EC50 is the concentration that produces a half-maximal response. What is called IC50 is the point on the concentration scale where inhibition reaches its midpoint. As for `O=S(=O)(Nc1ccc(F)c(Nc2ncnc3ccc(-n4cnc5c(N6CCC7(CCCC7)CC6)cccc54)nc23)c1F)c1cccc(Cl)c1Cl`, the EC50 in experiment [1], in experiment [3], in experiment [5] and in experiment [6] was less than 30 nM in each case. Besides, the “SK-MEL30 pERK % Ymin” value in experiment [2] is 2%. Also, the IC50 in experiment [2] is less than 30 nM; in experiment [4], 30 to 300 nM. For the same compound, the “NCI-H2122 pERK % Ymin” value in experiment [4] is reported as 30%.

For the compound `Cc1c(Cl)csc1S(=O)(=O)Nc1ccc(F)c(Nc2ncnc3ccc(-n4cc(S(=O)(=O)N(C)CCN(C)C)c5ccccc54)nc23)c1F`, the EC50 in experiment [1], in experiment [3], in experiment [5] and in experiment [6] was less than 30 nM throughout. Also, the “SK-MEL30 pERK % Ymin” value in experiment [2] is reported as −8%. Moreover, the results for the IC50 in experiment [2] and in experiment [4] were less than 30 nM and greater than 300 nM, respectively. Besides, the “NCI-H2122 pERK % Ymin” value in experiment [4] is −18%.
